The values that follow are results of earlier work, collected in US7655374B2, “Fixing liquid, toner fixing method and apparatus, and image forming method and apparatus” (Ricoh Company, Ltd., priority 2005, dated 2010).

The conditions of the series: in vivo, po.

Regarding diethoxyethyl succinate, the LD50 – broadly, the dose expected to kill half of the subjects tested – was 5000 mg/kg.
Take dimethylsiloxane: the LD50 is 15000 mg/kg.
